Patent US20090175786A1 (published 2009)

Chains of the proteins cited; added tags and fusions are not shown. Lines headed by an entry give the natural chain unless they say otherwise; changes in a name come on top.
UniProt P30550: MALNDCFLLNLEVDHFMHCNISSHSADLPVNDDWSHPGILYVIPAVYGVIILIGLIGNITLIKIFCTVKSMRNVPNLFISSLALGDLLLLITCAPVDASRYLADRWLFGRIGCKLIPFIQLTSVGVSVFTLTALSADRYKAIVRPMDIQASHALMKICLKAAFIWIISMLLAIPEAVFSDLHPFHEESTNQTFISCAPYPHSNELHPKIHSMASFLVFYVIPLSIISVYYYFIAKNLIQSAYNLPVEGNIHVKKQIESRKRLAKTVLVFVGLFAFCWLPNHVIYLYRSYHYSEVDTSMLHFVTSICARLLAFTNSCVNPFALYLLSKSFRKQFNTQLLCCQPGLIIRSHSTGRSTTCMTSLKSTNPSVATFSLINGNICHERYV

Molecular target: T1, gastrin releasing peptide receptor (GRP-R), human (human, UniProt P30550 1-384)
T1 construct: whole, on cells; also called GRP receptor; GRP-preferring receptor
Experiment: 125I-BBN competition, PC3 cells

- IC50: 75 nM
B1: DO3A-monoamide-G-4-aminobenzoic acid-(D)-Phe-QWAVGHL-NH-Pentyl (peptide)
peptide: FQWAVGHL
modifications: N-terminus: DO3A-monoamide-Gly-4-aminobenzoic acid; residue 1 is D-Phe; C-terminal pentylamide (NH-Pentyl)
notes: also called L219
